## Ab-14 heavy chain CDR variants: yeast mating affinities

Antigen: PDVDLGDISGINAS, a 14-residue peptide of the SARS-CoV-2 spike HR2 region.

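Phage display of a naive human antibody library on the peptide gave the parent. Designed CDR sequences, proposed from the first random library and measured here. Their group label is 14H_GPLM_HC (GPLM: also part of the Gaussian process libraries; HC: hill climbing; a sequence that several methods proposed may carry one label only). Affinity was read by AlphaSeq, a pooled yeast mating assay with surface-displayed partners. Pairs that bind mate more often; barcode pairs of the diploids are counted by sequencing. Each replicate has its own calibration line, from reference interactions of the BCL2 family. Mating was done six times.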

Each scFv is VH, a 15-residue (Gly4Ser)3 linker, VL, as in the parent Ab-14, and differs from it in the CDRs of the heavy chain only.
VH: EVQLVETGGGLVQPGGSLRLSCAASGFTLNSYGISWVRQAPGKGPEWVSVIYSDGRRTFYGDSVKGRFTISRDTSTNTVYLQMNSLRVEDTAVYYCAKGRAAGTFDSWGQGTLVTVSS
VL: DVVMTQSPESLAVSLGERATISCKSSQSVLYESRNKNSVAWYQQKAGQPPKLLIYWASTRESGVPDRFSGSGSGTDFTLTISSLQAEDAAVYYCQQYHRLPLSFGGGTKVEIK

Positions count from residue 1 of the parent VH; F27W puts W in place of F.
Values are log10 of the apparent Kd in nM; lower means stronger binding.
Where no diploid with the target was found in that replicate, the entry reads "ND": below detection, most likely a poor binder, though not proof of it.
In the paper, a design with two or fewer of six values counts as a poor binder.

{"changes": "F27W/S31D/F59Q/G61I", "log10 Kd, replicates": "ND 1.52 -0.06 -0.04 ND 0.53", "empty controls": "0 of 18"}
{"changes": "S31D/D106I/S107K", "log10 Kd, replicates": "ND ND ND ND ND ND", "empty controls": "0 of 18"}
{"changes": "T28S/S31D/F59Q/G61I", "log10 Kd, replicates": "0.54 2.36 -0.32 0.69 1.09 0.50", "empty controls": "0 of 18"}
{"changes": "S31D/D106V", "log10 Kd, replicates": "ND ND ND ND ND ND", "empty controls": "0 of 18"}
{"changes": "G61S/R100V/A102G/S107T", "log10 Kd, replicates": "1.90 1.10 1.23 1.35 1.50 1.78", "empty controls": "0 of 18"}
{"changes": "S31E/G61K/A101W", "log10 Kd, replicates": "ND 0.09 0.40 0.49 1.37 0.50", "empty controls": "0 of 18"}
{"changes": "S31E/R100K/S107F", "log10 Kd, replicates": "1.50 0.72 0.69 1.00 1.66 0.87", "empty controls": "0 of 18"}
{"changes": "S31E/R56L/G61T/A101F", "log10 Kd, replicates": "0.82 0.63 1.35 0.45 1.73 0.84", "empty controls": "0 of 18"}
{"changes": "S31D/D106W/S107I", "log10 Kd, replicates": "ND ND ND ND ND ND", "empty controls": "0 of 18"}
{"changes": "G61D/R100H/A101L", "log10 Kd, replicates": "0.94 1.29 0.85 1.45 1.55 1.17", "empty controls": "0 of 18"}
{"changes": "R56K/G61S/A102G", "log10 Kd, replicates": "0.11 0.03 0.53 0.38 0.09 0.87", "empty controls": "0 of 18"}
{"changes": "F59M/G61S", "log10 Kd, replicates": "ND 1.57 2.03 0.79 1.86 0.89", "empty controls": "0 of 18"}
{"changes": "T28D/A101T/D106N", "log10 Kd, replicates": "ND ND ND ND ND ND", "empty controls": "0 of 18"}
{"changes": "S31D/R100K/S107V", "log10 Kd, replicates": "0.73 0.52 0.90 0.46 0.22 0.58", "empty controls": "0 of 18"}
{"changes": "S31D/A101V/D106I", "log10 Kd, replicates": "ND ND ND ND ND ND", "empty controls": "0 of 18"}
{"changes": "T28D/R56M/A101T", "log10 Kd, replicates": "0.40 0.21 0.34 0.05 -0.01 0.35", "empty controls": "0 of 18"}
{"changes": "N30D/G61S/A102V", "log10 Kd, replicates": "ND ND ND ND ND ND", "empty controls": "1 of 18 (2.92)"}
{"changes": "S31D/A101Y/D106I", "log10 Kd, replicates": "ND ND ND ND ND ND", "empty controls": "0 of 18"}
{"changes": "S31D/G61I/D106I", "log10 Kd, replicates": "ND ND 1.10 ND 1.66 ND", "empty controls": "0 of 18"}
{"changes": "G61D/R100Q/A101L/S107L", "log10 Kd, replicates": "ND 1.18 ND 0.52 2.01 1.42", "empty controls": "0 of 18"}
{"changes": "S31E/G61T/A101F/D106T", "log10 Kd, replicates": "ND ND ND ND 2.96 ND", "empty controls": "1 of 18 (2.18)"}
{"changes": "G61S/R100M/A102G/S107T", "log10 Kd, replicates": "0.51 1.18 0.90 0.49 1.74 1.32", "empty controls": "1 of 18 (2.54)"}
{"changes": "S31D/R100K/D106T", "log10 Kd, replicates": "2.25 ND ND ND ND ND", "empty controls": "0 of 18"}

A selection of 4 entries from above:

{"changes": "T28S/S31D/F59Q/G61I", "log10 Kd, replicates": "0.54 2.36 -0.32 0.69 1.09 0.50", "empty controls": "0 of 18"}
{"changes": "S31D/R100K/S107V", "log10 Kd, replicates": "0.73 0.52 0.90 0.46 0.22 0.58", "empty controls": "0 of 18"}
{"changes": "S31D/D106V", "log10 Kd, replicates": "ND ND ND ND ND ND", "empty controls": "0 of 18"}
{"changes": "S31D/R100K/D106T", "log10 Kd, replicates": "2.25 ND ND ND ND ND", "empty controls": "0 of 18"}

Three control strains display no target. For all heavy chain designs, 1% of the pairings with them gave a signal, with a median of 2.08 and one signal in twenty below 0.84, so weak values seen in few replicates may be background. Also given: how often the same scFv was detected with the empty control strains, with their mean in brackets.
Of ten entries with the parent sequence, four were seen in most replicates (averages 0.34 to 2.37), three in one and three in none, so single entries are noisy.
A sequence measured in both rounds can read differently, since the two assays cover different ranges.

Values reported by Li et al. 2023, doi:10.1038/s41467-023-39022-2 (FLAb copy).